Several values for one entry are separate records, joined by “and”; a condition that tells them apart may be missing. Equal values may be shown once.
Tests used:
[1] = GLP-1 analog stability in formulation (PBS, HPLC); assay type: physicochemical; details: for Concentration / HPLC Purity: Injection 1 and 2
[2] = GLP-1 analog adhesion to plastic (transfer between 5 polypropylene tubes, HPLC); assay type: physicochemical; details: 1.6 μg/mL in PBS

semaglutide
Concentration ([1]; A: −80° C., 7 d): 1000 µg/mL | HPLC Purity ([1]; A: −80° C., 7 d): 98.22% and 98.17% | Concentration ([1]; B: 4° C., 1 d): 1000 µg/mL | HPLC Purity ([1]; B: 4° C., 1 d): 98.17% | Concentration ([1]; C: 4° C., 3 d): 1050 µg/mL | HPLC Purity ([1]; C: 4° C., 3 d): 98.19% and 98.18% | Concentration ([1]; D: 4° C., 7 d): 1000 µg/mL | HPLC Purity ([1]; D: 4° C., 7 d): 98.17% and 98.19% | Concentration ([1]; Fresh): 1000 µg/mL | HPLC Purity ([1]; Fresh): 98.18% and 98.17% | concentration of the formulation after storage ([1]; remained consistent over storage): 1000 µg/mL | change of purity after storage ([1]; storage at 4° C. or −80° C. for 7 days (semaglutide: 4° C. for 7 days), in words): No significant change of purity | Area (Mean), Initial Tube [2]: 19.4 | Area Ratio (Initial/Final Tube, %) [2]: 80% | Area (Mean), Final Tube ([2]; after transfer): 15.6 | HPLC Peak Areas, Final Tube ([2]; after transfer between 5 polypropylene tubes, Injection 1 and 2): 16.8 and 14.3 | HPLC Peak Areas, Initial Tube ([2]; Injection 1 and 2): 18.8 and 20.0

From US20250074964A1 (Ambio, Inc., priority 2023, published 2025)
